Results reported in patent US9012455B2, “Pharmaceutical compositions containing an indoyl isoquinoline containing compound and uses thereof” (The Regents of the University of California, priority 2006, dated 2015).

Chains of the proteins cited; added tags and fusions are not shown.
UniProt Q06609, whole entry: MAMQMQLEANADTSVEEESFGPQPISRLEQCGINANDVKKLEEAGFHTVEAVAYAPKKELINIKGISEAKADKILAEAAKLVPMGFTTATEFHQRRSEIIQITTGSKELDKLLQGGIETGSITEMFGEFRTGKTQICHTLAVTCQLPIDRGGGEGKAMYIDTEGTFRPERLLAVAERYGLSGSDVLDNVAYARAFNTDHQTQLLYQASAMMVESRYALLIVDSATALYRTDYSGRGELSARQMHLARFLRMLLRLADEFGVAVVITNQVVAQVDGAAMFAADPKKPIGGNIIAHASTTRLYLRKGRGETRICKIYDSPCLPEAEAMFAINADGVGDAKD

Target: Rad51-BRC repeat binding (Homo sapiens, UniProt Q06609)
Assay: SPR (Biacore) competitive binding assay, solution competition format
Details: read-out: median inhibition concentration

IC50: 1000 nM
SMILES: O=S(=O)(Cc1ccccc1)N1C=Cc2ccccc2[C@H]1c1c[nH]c2ccccc12
